Assay results published in patent US20090068143A1, “ORALLY EFFECTIVE CANNABINOID ANALOGS” (priority 2005, published 2009).

Key:
[1] = in vivo; cited from earlier work
[2] = system: MOG induced chronic progressive EAE; assay: MOG induced chronic-progressive EAE
[3] = system: EAE; conditions: cited from earlier work

Molecule: IFN-1-1a: beta interferon product (probably IFN-β-1a) to which patients develop NAbs
- patients developing neutralizing antibodies (NAbs) [1]: two to twenty-eight

B1: IFN-β: interferon-beta; Rebif® in b238, Betaferon (Schering, Germany) in b259 (protein, UniProt P01574 22-187, looked up)
Interferon beta: MSYNLLGFLQRSSNFQCQKLLWQLNGRLEYCLKDRMNFDIPEEIKQLQQFQKEDAALTIYEMLQNIFAIFRQDSSSTGWNETIVENLLANVYHQINHLKTVLEEKLEKEDFTRGKLMSSLHLKRYYGRILHYLKAKEYSHCAWTIVRVEILRNFYFINRLTGYLRN
- disease course ([2]; separate study, 10,000 IU per day s.c.): very similar to control group
- AUC of clinical score ([2]; separate study, daily from day 13, 18F 40 mg/kg p.o., COP-1 25 mg/kg s.c., IFN-β 10,000 IU per mouse s.c., control 24.14): 23.08 units
- reduction of severity of the disease ([3]; Rebif® 300,000 IU once a day for 3 days from day of MBP injection): about 30%
- efficacy of treatment initiated at a later stage ([3]; Ruuls et al.): not effective
- reduction of disease severity at the peak ([3]; prophylactic, from 2 days before MBP injection, 10 days (Van Der Meide et al.)): 1 score point
